Measured values as given in ChEMBL document CHEMBL4041469, “The replacement of the 2-methoxy substituent of N-((6,6-diphenyl-1,4-dioxan-2-yl)methyl)-2-(2-methoxyphenoxy)ethan-1-amine improves the selectivity for 5-HT1A receptor over α1-adrenoceptor and D2-like receptor subtypes” (Eur J Med Chem, 2017).

By UniProt entry, the sequences of proteins in these tests, tags left out.
UniProt P08908, whole entry: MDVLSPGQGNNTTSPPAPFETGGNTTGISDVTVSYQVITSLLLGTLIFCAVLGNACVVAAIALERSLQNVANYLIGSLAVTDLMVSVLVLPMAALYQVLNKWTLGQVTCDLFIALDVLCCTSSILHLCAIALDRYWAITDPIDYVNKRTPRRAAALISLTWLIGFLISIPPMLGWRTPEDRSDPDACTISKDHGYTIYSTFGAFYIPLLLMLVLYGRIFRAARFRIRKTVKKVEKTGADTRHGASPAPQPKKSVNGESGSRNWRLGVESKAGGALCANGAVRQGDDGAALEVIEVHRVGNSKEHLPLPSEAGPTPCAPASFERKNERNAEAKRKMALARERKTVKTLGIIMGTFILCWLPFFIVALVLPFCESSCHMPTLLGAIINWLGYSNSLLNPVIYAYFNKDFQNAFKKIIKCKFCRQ

Biological target: 5-hydroxytryptamine receptor 1A (Homo sapiens, UniProt P08908)
Experiment: Agonist activity at recombinant human 5HT1A receptor expressed in human HeLa cell membranes assessed as stimulation of [35S]GTPgammaS binding preincubated for 20 mins followed by [35S]GTPgammaS addition measured after 30 mins by liquid scintillation counting method
Assay type: functional

`COc1ccccc1OCCNC[C@@H]1COC[C@H](c2ccccc2)O1` (racemic) was tested, and the pD2 was 7.83.
